Earlier results, collected in PMC2045123 (Analytical and Bioanalytical Chemistry, 2007).

Tested on: androgen receptor
Settings: without metabolic activation; cited from earlier work

C[C@]12CC[C@H](O)CC1=CC[C@@H]1[C@@H]2CC[C@]2(C)C(=O)CC[C@@H]12 [dehydroepiandrosterone]
activity in yeast-based bioassays: not active
